{"source": "patent US20220267379A1", "about": "“NOVEL INHIBITORS OF […] AND USES THEREOF” (Ecole Polytechnique Federale de Lausanne (EPFL), priority 2019, published 2022)", "target": "KLK7"}
{"substance": "P C L Y L A R C [compound 114]", "values": [{"measurement": "Ki", "result": "29 ± 4", "unit": "nM"}]}
